# Ab-14 light chain CDR variants: yeast mating affinities

Target: peptide PDVDLGDISGINAS, taken from heptad repeat 2 (HR2) of SARS-CoV-2 spike.

Parent: Ab-14, a human scFv built as VH, a (GGGGS)3 linker, VL. Only the CDRs of the light chain vary.
VH: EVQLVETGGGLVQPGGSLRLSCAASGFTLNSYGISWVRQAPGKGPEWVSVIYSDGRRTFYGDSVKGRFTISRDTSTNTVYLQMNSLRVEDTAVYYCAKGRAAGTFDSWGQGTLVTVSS
VL: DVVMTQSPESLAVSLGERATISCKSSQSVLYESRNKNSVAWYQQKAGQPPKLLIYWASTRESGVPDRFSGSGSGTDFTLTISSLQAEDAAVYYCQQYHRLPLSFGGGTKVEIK

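AAYL50 was designed without a model: most single CDR substitutions and a random sample of double and triple ones. AlphaSeq pools MATa yeast showing the antibodies with MATalpha yeast showing the peptide. The frequency of each diploid, read from paired DNA barcodes, reflects how well the two displayed proteins bind. A regression on co-assayed BCL2-family reference pairs converts the normalised counts of each replicate to an apparent Kd. There are three technical replicates.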

Changes read parent residue, position, new residue, counted from the first residue of the VL shown.
Scale: log10 of Kd in nM, estimated from mating counts; low values are strong binders.
A pair that was not seen in that replicate is written "ND"; this usually means weak binding, but a binder can also be missed.
In this assay the parent's reference entry averaged 0.65; its copy inside this library read 1.68.
Background: pairings of library AAYL50 with three empty control strains gave a value in 18% of cases (median 4.19, 5th percentile 2.99). Values in that range, when seen in few replicates, are hard to tell from nonspecific mating.

changes | log10 Kd, replicates
K24A/E32G/S38F | 6.67 / 5.20 / 5.51
S33N/V39S/S103E | ND / ND / ND
S26V/S28M/L102P | 3.32 / 2.24 / 2.72
Y31P/S62H | 1.57 / 1.41 / 1.76
S25D/V29T/R34T | 0.34 / 0.50 / 0.26
T59R/E61P/H98P | ND / 2.99 / ND
Y31E/S103W | 0.96 / 1.27 / 1.30
S25G/W56E/S58L | -0.26 / 0.09 / -0.16
V29K/E32D/L100C | ND / ND / 5.15
E32Y/H98M | 0.89 / 1.08 / 0.89
K24W/R60S/L100I | ND / ND / ND
S58W/H98W/P101Y | ND / 2.98 / 3.15
L30W/Y31V/N37V | 1.52 / 1.53 / 1.82
T59P/Q96A/Y97C | ND / 3.90 / ND
S25W/R34F/A57H | 3.35 / ND / ND
Q27K/V39G/S62A | 5.06 / ND / ND
S26N/R60H/Q95S | 5.70 / 5.30 / ND
A40P/S58K/L100S | ND / ND / 3.49
S26C/Q95L/L102Y | ND / ND / ND
T59P/R60I/H98V | ND / 3.62 / 5.82
K24R/S38M/S103M | 3.28 / 3.31 / 4.84
L30V/E32V/R99T | ND / 3.54 / ND
V29P/Q96F | 2.11 / 2.00 / 2.11
Q27E/S28F/R34D | ND / ND / ND
V39T/A40P/T59Y | ND / 3.69 / ND
A40E/S58L/E61D | 4.23 / 3.59 / 5.30
S33A/K36E/V39E | 4.50 / ND / ND
N35E/A40W/A57D | ND / ND / 3.78
K36P/S62W/S103C | ND / 1.77 / ND
N37M/E61L/L102H | 2.25 / 1.79 / 2.15
K36N/S38E/L102D | ND / ND / ND
V29N/S38W | ND / 2.69 / ND
K24P/S25W/N37T | ND / 3.74 / ND
R34N/T59V/P101C | 2.46 / 2.41 / 2.89
Y31E/A40I/R99K | ND / ND / 3.36
R34Q/N37W/S62V | 0.42 / 0.72 / 0.70
V39Y/A40I | ND / ND / ND
T59H/Y97S/S103V | 4.76 / ND / ND
E61L/Y97K/L102D | 5.35 / ND / ND
S25E/S26K/L100H | 3.45 / 2.15 / 2.46
E32H/S62D/Q96E | 0.88 / 0.96 / 0.89
L30I/N37P/Q95V | 4.22 / ND / 4.08
K24R/Q95I | ND / ND / ND
V29L/R60E/Y97H | ND / ND / ND
Y31G/S38Y/S58C | ND / 4.45 / ND
N37P/E61T/P101A | ND / 3.18 / 3.51
S25M/K36A/A40Q | 4.77 / ND / ND

Top 3 of the variants detected in all replicates, tightest first:

{"changes": "S25G/W56E/S58L", "log10 Kd, replicates": "-0.26 / 0.09 / -0.16"}
{"changes": "S25D/V29T/R34T", "log10 Kd, replicates": "0.34 / 0.50 / 0.26"}
{"changes": "R34Q/N37W/S62V", "log10 Kd, replicates": "0.42 / 0.72 / 0.70"}

Reference: Engelhart et al. 2022, doi:10.1038/s41597-022-01779-4. File: FLAb, binding data.